{"source": "patent US6156789A", "about": "“Method for treating abnormal cell proliferation in the brain” (Rhone-Poulenc Rorer S.A., priority 1998, dated 2000)", "tested_on": "mdr 1", "assay": "Recognition by mdr 1 / multi-drug resistance properties"}
{"smiles": "CC(=O)O[C@H]1C(=O)[C@]23C[C@H]2C[C@H]2OC[C@@]2(OC(C)=O)[C@H]3[C@H](OC(=O)c2ccccc2)[C@]2(O)C[C@H](OC(=O)[C@H](O)[C@@H](NC(=O)c3ccccc3)c3ccccc3)C(C)=C1C2(C)C", "values": [{"measurement": "multi-drug resistance properties compared with Taxol and Taxotere", "value": "better multi-drug resistance properties than Taxol® and Taxotere®"}]}
